Results reported in patent US20100311718A1, “Treatment of Psychoses with Dibenzothiazepine Antipsychotic” (AstraZeneca AB, priority 2004, published 2010).
Where a name gives a salt, the structure may show the parent alone. Read-outs that look alike come from different tables or passages of the source. Marks after values point to notes of the source that are not given here.

Key:
[1] = tested on: patients with bipolar depression; settings: Bipolar II, ITT population
[2] = tested on: patients with bipolar depression; settings: Week 8 LOCF, 300 mg
[3] = tested on: patients with bipolar depression; settings: Week 8 LOCF

Structure (SMILES): OCCOCCN1CCN(C2=Nc3ccccc3Sc3ccccc32)CC1 [quetiapine, 2-[2-(4-dibenzo [b,f] 1,4]thiazepin-11-yl-1-piperazinyl)ethoxy]-ethanol fumarate]
- Change in MADRS, Mean (SD) ([1]; 300 mg/day): −15.2 (10.2)
- Change in MADRS, Mean (SD) ([1]; 600 mg/day): −13.9 (10.2)
- Q-LES-Q change (Δ), Mean (SD) [2]: 10.2 (10.7)*
- Sleep component: Sleep efficiency, Mean (SD) ([3]; 300 mg): 0.6 (1.0)
- Sleep component: Sleep efficiency, Mean (SD) ([3]; 600 mg): 0.7 (1.1)
